The list shows a part of the results, in another mix than the full data. Some structures show a salt or complex split into parts, the way the source records it. The source made the active and inactive calls. No stated cut-off is given here; in the data, active means growth inhibition above about 70%; inactive means the rest.
Columns and labels:
[1] = NCI Yeast Anticancer Drug Screen. Data for the rad50 strain (AID 155);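 further: 0% = growth of vehicle-only cultures of the same strain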; details: S. cerevisiae rad50 strain growth inhibition; at 50.0 µM; hits give high values
[2] = NCI Yeast Anticancer Drug Screen. Data for the mec2-1 strain (AID 157); details: S. cerevisiae mec2-1 strain, at 50.0 µM, hits give high values
[3] = NCI Yeast Anticancer Drug Screen. Data for the sgs1 mgt1 strain (AID 161);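 further: 0% = growth of cultures given vehicle only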; details: S. cerevisiae sgs1 mgt1 strain, at 50.0 µM, hits give high values
[4] = NCI Yeast Anticancer Drug Screen. Data for the cln2 rad14 strain (AID 165);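 further: 0% = growth equal to vehicle treated cultures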; details: S. cerevisiae cln2 rad14 strain, at 50.0 µM, hits give high values
[5] = NCI Yeast Anticancer Drug Screen. Data for the bub3 strain (AID 167); details: S. cerevisiae bub3 mutant strain, at 50.0 µM, hits give high values
[6] = NCI Yeast Anticancer Drug Screen. Data for the mlh1 rad18 strain (AID 175); details: S. cerevisiae mlh1 rad18 strain growth inhibition; at 50.0 µM; hits give high values

Row | SMILES | growth inhibition [1] | growth inhibition [2] | growth inhibition [3] | growth inhibition [4] | growth inhibition [5] | growth inhibition [6]
1 | CN1C2CCCCCCC21.O=[N+]([O-])c1cc([N+](=O)[O-])c(O)c([N+](=O)[O-])c1 | inactive: 4.6% | inactive: -7.05% | inactive: 8.05% | inactive: 8.5% | inactive: 4.2% | inactive: 20.4%
2 | C1CCN(C2CC3CC2C2CSCC32)CC1 (stereo not given) | inactive: 62.5% | inactive: 37.6% | active: 72.3% | inactive: -2.1% | inactive: 11.3% | inactive: 42.8%
3 | Br.C[N+]12CCCN(CC1)CC2.O=[N+]([O-])c1cc([N+](=O)[O-])c(O)c([N+](=O)[O-])c1.[Br-] | inactive: -3% | inactive: 4.2% | inactive: 12.8% | inactive: 17.4% | inactive: -3.7% | inactive: 9.5%
4 | CCOP(C)(=S)Oc1ccc([N+](=O)[O-])cc1 (stereo not given) | inactive: 25.4% | inactive: 10.1% | inactive: 13.4% | inactive: 17.6% | inactive: 27.8% | inactive: 10.2%
5 | CCOC(=O)C(C)(C)C(OP(=O)(CC)OCC)=C(C)C (stereo not given) | inactive: -9.4% | inactive: 7.5% | inactive: -4.7% | inactive: -5.05% | inactive: -2.05% | inactive: 5.55%
6 | CCN(CC)CCOC(=O)C(O)(c1cccc(C)c1)C1CCCCC1 (stereo not given) | inactive: 28.1% | inactive: 5.65% | inactive: 19.3% | inactive: -9.95% | inactive: -14.9% | inactive: 17.4%
7 | C[n+]1ccc(/C=C/c2ccccc2)cc1.O=[N+]([O-])c1cc([N+](=O)[O-])c([O-])c([N+](=O)[O-])c1 | inactive: 9.25% | inactive: -1.45% | inactive: -21.6% | inactive: -35.7% | inactive: 17.2% | inactive: -3.5%
8 | NC1CC2CC1C1CCCC21.O=[N+]([O-])c1cc([N+](=O)[O-])c(O)c([N+](=O)[O-])c1 | inactive: 34.5% | inactive: 6.8% | inactive: 32.7% | inactive: 15.9% | inactive: 8.1% | inactive: 12.8%
9 | O=[N+]([O-])c1cc([N+](=O)[O-])c(O)c([N+](=O)[O-])c1.c1ccc(-c2cc3ccccn3c2)cc1 | inactive: 3.65% | inactive: 4.75% | inactive: 21.9% | inactive: 5.05% | inactive: 18.1% | inactive: 19%
10 | NC(=O)NC(=O)N[N+](=O)[O-] | inactive: -2.7% | inactive: -0.7% | inactive: -5.85% | inactive: 18.6% | inactive: 2.05% | inactive: 3.25%
11 | COc1ccc2c3c1O[C@H]1C4(OC)CCC5(CC4C(C)(C)O)[C@@H](C2)N(C)CC[C@]315 (stereo not given in full) | inactive: -24.1% | inactive: -18.6% | inactive: -11.9% | inactive: 0.4% | inactive: -2.7% | inactive: -13.2%
12 | NCCc1ccccn1.O=[N+]([O-])c1cc([N+](=O)[O-])c(O)c([N+](=O)[O-])c1 | inactive: 8.7% | inactive: -8.45% | inactive: 10.4% | inactive: 4.4% | inactive: -12.2% | inactive: -6.1%
13 | C[S+](N)(=O)CCC(N)P(=O)(O)O.O=[N+]([O-])c1cc([N+](=O)[O-])c([O-])c([N+](=O)[O-])c1 | inactive: -30% | inactive: -13.7% | inactive: -6.75% | inactive: -20.6% | inactive: 10.4% | inactive: -13.2%
14 | N.N.N.N.N.[Cl-].[Co+3].n1n[n-]c(-c2nn[n-]n2)n1 | inactive: -0.45% | inactive: -2.05% | inactive: -0.15% | inactive: 21.7% | inactive: -3.1% | inactive: -3.1%
15 | COP(C)(=O)c1ccc([N+](C)(C)C)cc1.O=[N+]([O-])c1cc([N+](=O)[O-])c([O-])c([N+](=O)[O-])c1 | inactive: 9.25% | inactive: 6.7% | inactive: 11.8% | inactive: 8.2% | inactive: -1.7% | inactive: -10.1%
16 | O=[N+]([O-])N1C2OC3OC2N([N+](=O)[O-])C2OC3OC21 | inactive: -19.9% | inactive: -7.9% | inactive: -6% | inactive: 6.9% | inactive: -11.8% | inactive: -11.6%
17 | CC(C)OP(C)(=O)O.[Eu] | inactive: -6.75% | inactive: -10.3% | inactive: -1.7% | inactive: -29.6% | inactive: -3.45% | inactive: -9.05%
18 | N#CCc1ccc2ccccc2n1.O=[N+]([O-])c1cc([N+](=O)[O-])c(O)c([N+](=O)[O-])c1 | inactive: 46% | inactive: 14.7% | inactive: 35.9% | inactive: 25.1% | inactive: 8.1% | inactive: 22.6%
19 | C[N+](C)(C)C.n1n[n-]c(-c2nnn[n-]2)n1 | inactive: -2.6% | inactive: -4.55% | inactive: -13.9% | inactive: 6.3% | inactive: 14.5% | inactive: -1.4%
20 | CC(=O)NCCCCOc1ccc(N)cc1 | inactive: -13.2% | inactive: 9.35% | inactive: -13.7% | inactive: 41.9% | inactive: 1.75% | inactive: -9.6%
21 | NCc1ccccc1-c1ccccc1.O=[N+]([O-])c1cc([N+](=O)[O-])c(O)c([N+](=O)[O-])c1 | inactive: 35.5% | inactive: 20.8% | inactive: 32.4% | inactive: 24.1% | inactive: -0.45% | inactive: 23.9%
22 | CCC1CCCCN1.O=[N+]([O-])c1cc([N+](=O)[O-])c(O)c([N+](=O)[O-])c1 | inactive: -5.7% | inactive: -0.75% | inactive: 8.1% | inactive: -12.7% | inactive: 22.6% | inactive: 21.8%
23 | Cc1cccc(N)c1.O=[N+]([O-])c1cc([N+](=O)[O-])c(O)c([N+](=O)[O-])c1 | inactive: 14.2% | inactive: 16.2% | inactive: 16.1% | inactive: -3.65% | inactive: -3% | inactive: 21%
24 | O=[N+]([O-])c1cc([N+](=O)[O-])c(O)c([N+](=O)[O-])c1.OCCNCCc1ccccc1 | inactive: 43.2% | inactive: 5.85% | inactive: 26.6% | inactive: -0.65% | inactive: 4.4% | inactive: 16.2%
25 | Cc1ccc2c(ccc3cc(C)ccc32)c1.O=C1c2cc([N+](=O)[O-])ccc2-c2c1cc([N+](=O)[O-])cc2[N+](=O)[O-] | inactive: 21.6% | inactive: 12.7% | inactive: 2.05% | inactive: 4.2% | inactive: -1.2% | inactive: 32.7%
